Measured values as given in patent US9364496B2, “Custirsen treatment with reduced toxicity” (ONCOGENEX TECHNOLOGIES INC., priority 2013, dated 2016).
Where “and” joins values, the source holds several entries; their conditions need not be identical. Equal entries are not always repeated.

Key:
[1] = tested on: RPMI 8226 (human myeloma) xenograft; assay: In vivo activity of custirsen with Velcade, RPMI 8226 xenograft (Example 14); settings: Velcade 0.5 mg/kg iv biwk
Method: The cells were implanted subcutaneously into female SCID mice with 7×10^6 cells inoculum.
Tumors and body weights were measured weekly until termination of the study on day 71. Response to treatment was evaluated for tumor growth inhibition (TGI) and tumor growth delay (TGD).
70 CB.17 SCID female mice, 4-6 weeks old, 16-20 grams, obtained from Harlan animal breeding center.
Sample from the cell suspension was taken for counting (0.3 ml in duplicates for CEDEX) before spun down. Cell viability was 85.6% and live cell concentration was 167×10^5 cells/ml. The pellet was resuspended in HBSS to a final volume of 8 ml.
Tumors were implanted subcutaneously with RPMI-8226 cells into the right flank of the mouse on Day 0. Each animal received a s.c. injection 7×10^6 cells in 0.1 ml suspension. On day 20, mice were sorted by the optimal tumor volume ([…]) and were allocated into 5 groups of 10 mice. Mice were individually tagged and their tumor volume and body weight were monitored weekly during the study. Tumor size was measured by caliper and calculated using the formula: […]
The treatment started on […] (0.2 ml per 20 grams v/w) and continued till day 52, after which the remaining mice were left for observation until day 71.

[2] = tested on: RPMI 8226 (human myeloma) xenograft; assay: In vivo activity of custirsen (TV-1011), different doses and regimens with Bortezomib, RPMI 8226 xenograft (Example 15); settings: for Day 21 volume / Day 28 volume / Day 33 volume / Day 41 volume: Velcade 0.5 mg/kg biwk; for volume / Δ volume: group 2: Velcade 0.5 mg/kg biwk; for Δ volume: Day 62 vs baseline
Method: 120 CB.17 SCID female mice, 4-6 weeks old, 16-20 grams, obtained from Harlan animal breeding center.
Cells (originated from ATCC) were cultured on RPMI medium. Cell suspension was centrifuged and resuspended in 50% Matrigel/HBSS to a final concentration of 7×10^7 cells/ml. The suspension was implanted s.c. in the right flank of the anesthetized mouse at a volume of 100 μl.
Seven ml saline were added to the original vial containing 3.5 mg powder resulting in 0.5 mg/ml. Three ml of this solution were added to 27 ml saline to receive 0.05 mg/ml concentration. […] 28.5 ml of 4 mg/ml were added to 9.5 saline to receive 3 mg/ml.
Mice were implanted subcutaneously, with 7×10^6 RPMI 8226 cells/mouse (in 50% Martigel/HBSS) on Day 0. On day 21, mice were sorted by the optimal average tumor volume (˜130 mm3) and were allocated into eight groups of 10 mice each.
The treatment started on day 21 post implant, 0.2 ml per 20 grams v/w.
[formula] The analysis of weight gain and tumor volume progression was made using one-way ANOVA followed by Tukey post-hoc comparisons.

[3] = Velcade 0.5 mg/kg iv biwk, day 62

CC(C)C[C@H](NC(=O)[C@H](Cc1ccccc1)NC(=O)c1cnccn1)B(O)O [Velcade®, Bortezomib, reference compound]
Δ volume ([1]; Day 48, group mean): 606.6 | volume ([1]; Day 48, individual mice): 1060 and 549 | Δ volume ([1]; Day 48, individual mice): 537.5 | volume ([1]; Day 51, individual mice): 619 and 578 | Day 45 volume ([1]; group Mean, n 10): 575.1 | Day 20 volume ([1]; individual mouse): 119 | Day 45 volume ([1]; individual mouse): 621 and 539 | Day 27 Δ volume ([1]; individual mouse, vs Day 20): 106.5 | Day 34 Δ volume ([1]; individual mouse, vs Day 20): 121.9 and 124.7 | Day 45 Δ volume ([1]; individual mouse, vs Day 20): 544.2 and 592.6 and 582.0 | Day 21 volume ([2]; group Mean): 129.3 | Day 28 volume ([2]; group Mean): 178.9 | Day 33 volume ([2]; group Mean): 187.6 | Day 41 volume ([2]; group Mean): 243.6 | Day 21 volume ([2]; individual mice): 100 and 106 and 117 and 119 and 124 and 129 and 133 and 142 and 154 and 166 | Day 28 volume ([2]; individual mice): 127 and 162 and 223 and 192 and 155 and 152 and 172 and 141 and 243 and 222 | Day 33 volume ([2]; individual mice): 152 (2×) and 175 and 216 and 189 and 187 (2×) and 227 and 165 and 225 | Day 41 volume ([2]; individual mice): 120 and 188 and 288 and 244 and 225 and 299 and 191 and 245 and 280 and 355 | % TGI [2, 3]: 43% | No. of CR [2, 3]: 0 | No. of PR [2, 3]: 0 | No. of TRD [2, 3]: 0 | No. og nTRD [2, 3]: 0 | Δ mean tumor volume, (mean ± se) [2, 3]: 996 ± 179 | effect on tumor growth, in words ([2]; Velcade alone 0.5 mg/kg iv biwk): moderate | volume ([2]; Day 48, group Mean, n 10): 382.6 | volume ([2]; Day 48, individual animals): 180 and 423 and 682 and 441 and 282 and 431 and 252 and 281 and 363 and 490 | volume ([2]; Day 55, group Mean, n 10): 633.5 | volume ([2]; Day 55, individual animals): 164 and 924 and 1082 and 644 and 403 and 809 and 562 and 481 and 371 and 894 | volume ([2]; Day 62, group Mean, n 10): 1125.2 | volume ([2]; Day 62, individual animals): 174 and 1747 and 1988 and 1094 and 726 and 1451 and 1084 and 924 and 520 and 1544 | Δ volume ([2]; group Mean, n 10): 995.9 | Δ volume ([2]; individual animals): 74.3 and 1638.7 and 1870.6 and 974.8 and 601.2 and 1322.3 and 950.8 and 782.5 and 366.6 and 1377.6
